Laboratory results reported in patent publication US7348402B2, “Antimicrobial peptide, its analogs and antimicrobial composition comprising them” (priority 2002, dated 2008).

Test system: human red blood cells (hRBC)
Test: Hemolytic activity on human red blood cells
Type: cell-based
Conditions: peptide 200 μg/ml, 1 h at 37° C.; 0.2% Triton X-100 set to 100% hemolysis
Description: After separating the precipitated human red blood cells (hRBC) from 3 ml of human blood, they were washed with PBS (phosphate buffered saline) and diluted to make the total volume of 20 ml. In 190 μl of the prepared hRBC solution, 10 μl of each peptide sample (4 μg/μl ) prepared in Example 1 was added to make the final concentration of 200 μg/ml, reacted for 1 h at 37° C. and centrifuged for 5 min at 4000 rpm. […] The absorbance of the sample treated with 0.2% Triton X-100 was set to represent 100% hemolysis and the percent (%) hemolysis of each sample was relatively calculated from each measured absorbance, as shown in Table 3.

CC[C@H](C)[C@H](NC(=O)CN)C(=O)NCC(=O)N[C@@H](C)C(=O)N[C@H](C(=O)N[C@@H](CC(C)C)C(=O)N[C@@H](CCCCN)C(=O)N[C@H](C(=O)N[C@@H](CC(C)C)C(=O)N[C@H](C(=O)N[C@H](C(=O)NCC(=O)N[C@@H](CC(C)C)C(=O)N1CCC[C@H]1C(=O)N[C@@H](C)C(=O)N[C@@H](CC(C)C)C(=O)N[C@H](C(=O)N[C@@H](CO)C(=O)N[C@@H](Cc1c[nH]c2ccccc12)C(=O)N[C@H](C(=O)N[C@@H](CCCCN)C(=O)N[C@@H](CCCNC(=N)N)C(=O)N[C@@H](CCCCN)C(=O)N[C@@H](CCCNC(=N)N)C(=O)N[C@@H](CCC(N)=O)C(=O)N[C@@H](CCC(N)=O)C(N)=O)[C@@H](C)CC)[C@@H](C)CC)[C@@H](C)O)[C@@H](C)O)C(C)C)C(C)C [Melittin, melittin]
% hemolysis: 99%
